Reference: patent US20110081675A1, “Metabolic Biomarkers Of Drug-Induced Cardiotoxicity” (WISCONSIN ALUMNI RESEARCH FOUNDATION, priority 2009, published 2011)

Tested on: human cardiomyocytes (Celprogen 36044-15at)
Test: LC-ESI-TOF-MS metabolomics of extracellular media of drug-treated human cardiomyocytes (Tables 2A-2C)
Assay type: cell-based
Details: 7.0ug.ml herceptin; for herfold1: set 1; for herfold2: set 2
Experimental: Data for statistical analysis were extracted from chromatograms using the Agilent Mass Hunter software (Product No. G3297AA, Agilent Technologies, Inc., Santa Clara, Calif.); it will be understood that alternative statistical analysis methods can be used. Masses were binned together if they were within 10 ppm and eluted within a 2 minutes retention time window. A binned mass was considered to be the same molecule across different LC-ESI-TOF-MS analyses (referred to herein as an “exact mass,” which will be understood to be ±10 ppm). Binning of the data is required for statistical analysis and comparison of masses across the entire experiment. If multiple peaks with the same mass at the same retention time within a single sample were detected by Mass Hunter, they were averaged to assist data analysis. Masses lacking a natural isotopic distribution or with an absolute height of less than 1000 were removed from the data prior to analysis. It would be understood that the results from this assay provide relative values that are assessed according to annotated values within 10 ppm to provide an identity for the molecular weight detected. Thus, a mass shift within 10 ppm is considered consistent with determining the identity of a specific cellular metabolite previously annotated due to differences in ionization source and instrumentation, e.g. between different experiments or using different instruments.
As used herein, a mass was considered to be the same across LC/ESI-TOF-MS runs using a simple algorithm that first sorts the data by mass and retention time. […] If a series of measurements fit this definition it was considered to be from the same compound. If either the mass or the retention time varied by more than the limits listed above it was considered to be a different compound and given a new unique designation.
The data from the most reproducible mass features was log base 2 transformed and median centered prior to statistical analysis. […] To test the null hypothesis a one way permutation based t-test assuming a normal approximation of the conditional distribution was used and implement using the Conditional Inference Procedures in a Permutation Test Framework (Coin) library, a contributed package of programming code. Statistics tests were performed without replacement of missing values decrease the degrees of freedom rather than imputing missing values. […] False discovery rates (FDR) were controlled using the Q value estimator (Storey et al., 2003, Proc Natl Acad. Sci., 100:9440-5) and implemented using the qvalue library in R (Dabney et al., 2003, qvalue: Q-value estimation for false discovery rate control. R package version 1.10.0., www.CRAN.R-project.org).
The extracellular media from treated and untreated cells was processed as described in Cezar et al., (2007, Stem Cells Development 16: 869-882, this publication is incorporated by reference), for extraction of low molecular weight molecules (<3 kD) for metabolomics analysis. Extracellular low molecular weight molecule preparations were separated by liquid chromatography followed by electrospray ionization time of flight (LC-ESI-TOF-MS) mass spectrometry for ionization and detection of the full spectra of low molecular weight molecules present in each sample. More specifically, the samples were separated using the ESI_Luna_HILIC—95_t—06OACN—16 min method (HILIC chromatography). Statistical differences were inferred by subsequent bioinformatics and in silico mapping of deisotoped ESI-TOF-MS mass features as described below (also provided in Cezar et al. (2007, id.)).
Briefly, ionization (100 m/z-1500 m/z) was acquired on an Agilent 6520 Accurate-Mass Q-TOF in extended dynamic range and positive mode. Mass features were generated using two independent methods. First MassHunter Qualitative Analysis was used to generate mass features using the Molecular Feature Extraction algorithm (MFE).

[1] = feature cpdID 36, neutral mass 101.1204, RT 0.720145, Triethylamine or Hexylamine
[2] = feature cpdID 8902, neutral mass 276.1256, RT 8.733378, no hit
[3] = feature cpdID 11232, neutral mass 311.1029, RT 7.400847, p-Glucosyloxymandelonitrile or (S)-4-Hydroxymandelonitrile beta-D-glucoside
[4] = feature cpdID 14190, neutral mass 356.253, RT 1.103957, HMDB04239, 13,14-dihydro PGE1 or Prostaglandin F1alpha
[5] = feature cpdID 16504, neutral mass 393.0913, RT 7.25538, no hit
[6] = feature cpdID 16939, neutral mass 400.2796, RT 1.108613, 7-Ketocholesterol
[7] = feature cpdID 19500, neutral mass 444.3034, RT 1.106333, 1,25-Dihydroxyvitamin D3-26,23-lactone
[8] = feature cpdID 19704, neutral mass 448.1344, RT 7.184483, no hit
[9] = feature cpdID 21926, neutral mass 488.3323, RT 1.106573, no hit
[10] = feature cpdID 23129, neutral mass 515.181, RT 10.44297, no hit
[11] = feature cpdID 23163, neutral mass 516.1241, RT 7.217222, Formononetin 7-O-glucoside-6″-O-malonate, Isochlorogenic acid b or 13-Dicaffeoylquinic acid
[12] = feature cpdID 24142, neutral mass 538.2779, RT 0.783395, no hit
[13] = feature cpdID 25561, neutral mass 575.2051, RT 7.271724, no hit
[14] = feature cpdID 28720, neutral mass 661.1924, RT 6.495524, no hit
[15] = feature cpdID 29101, neutral mass 672.1828, RT 6.528464, no hit
[16] = feature cpdID 29227, neutral mass 676.1781, RT 1.298314, no hit
[17] = feature cpdID 31637, neutral mass 744.1091, RT 1.26415, no hit
[18] = feature cpdID 37905, neutral mass 932.2608, RT 6.542554, no hit
[19] = feature cpdID 37938, neutral mass 933.3726, RT 8.330596, no hit
[20] = feature cpdID 40510, neutral mass 1040.322, RT 6.499979, no hit
[21] = feature cpdID 42137, neutral mass 1122.172, RT 1.256606, no hit

“Herceptin: therapeutic HER2/ERBB2 monoclonal antibody (trastuzumab)” was tested, and the herfold1 [1] was −1.771 fold, the herfold1 [2] was −1.21 fold and the herfold1 [3] was −1.145 fold. The herfold1 [4] was 1.138 fold, the herfold1 (feature cpdID 15112, neutral mass 372.0557, RT […], no hit) was −1.405 fold and the herfold1 [5] was −1.7268 fold. The herfold1 [6] was −1.086 fold, the herfold1 [7] was 4.038 fold and the herfold1 [8] was −1.236 fold. The herfold1 [9] was 1.09 fold, the herfold1 [10] was −1.096 fold and the herfold1 [11] was −1.371 fold. It also gave a herfold1 [12] of 1.081 fold, a herfold1 [13] of 1.224 fold and a herfold1 [14] of −1.142 fold. The herfold1 [15] was −1.02 fold, the herfold1 [16] was −305510 fold and the herfold1 [17] was 1.342 fold. It also gave a herfold1 [18] of 1.083 fold, a herfold1 [19] of −1.289 fold and a herfold1 [20] of 1.225 fold. For the same substance, the herfold1 [21] was −32248 fold, the herfold2 [1] was 1.711 fold and the herfold2 [2] was −1.489 fold. The herfold2 [3] was −1.2418 fold, the herfold2 [4] was −1.178 fold and the herfold2 [5] was −1.017 fold. It also gave a herfold2 [6] of −1.231 fold, a herfold2 [7] of 3.489 fold and a herfold2 [8] of −1.279 fold. For the same substance, the herfold2 [9] was −1.11 fold, the herfold2 [10] was −1.1782 fold and the herfold2 [11] was −1.338 fold. For the same substance, the herfold2 [12] was −1.081 fold, the herfold2 [13] was 1.234 fold and the herfold2 (feature cpdID 25601, neutral mass 576.3861, RT 1.10751, 3-Hexaprenyl-4-hydroxy-5-methoxybenzoic acid) was −1.101 fold. For the same substance, the herfold2 (feature cpdID 27363, neutral mass 620.4117, RT 1.108317, no hit) was −1.096 fold, the herfold2 [14] was 1.388 fold and the herfold2 [15] was −1.115 fold. The herfold2 (feature cpdID 29124, neutral mass 672.6836, RT 6.559082, no hit) was 22972 fold, the herfold2 [16] was −1.1913 fold and the herfold2 [17] was −1.048 fold. It also gave a herfold2 (feature cpdID 33162, neutral mass 791.2316, RT 6.496594, no hit) of −1.037 fold, a herfold2 [18] of −1.182 fold and a herfold2 (feature cpdID 37922, neutral mass 932.7613, RT 6.562271, no hit) of 25460 fold. For the same substance, the herfold2 [19] was −1.013 fold, the herfold2 [20] was −1.043 fold and the herfold2 [21] was −32248 fold. The herfold2 (feature cpdID 45209, neutral mass 1300.402, RT 6.501484, no hit) was −1.045 fold and the herfold2 (feature cpdID 45486, neutral mass 1322.385, RT 6.518707, no hit) was −1.0661 fold.
